# Measured values taken from article PMC4945769 (British Journal of Pharmacology, 2016).
# Where two headings read alike, the source gives them in different places.
# Molecular target: T1, DPP1 (Homo sapiens, UniProt P53634)
# T1 sequence (P53634 with tags, fused parts or gaps): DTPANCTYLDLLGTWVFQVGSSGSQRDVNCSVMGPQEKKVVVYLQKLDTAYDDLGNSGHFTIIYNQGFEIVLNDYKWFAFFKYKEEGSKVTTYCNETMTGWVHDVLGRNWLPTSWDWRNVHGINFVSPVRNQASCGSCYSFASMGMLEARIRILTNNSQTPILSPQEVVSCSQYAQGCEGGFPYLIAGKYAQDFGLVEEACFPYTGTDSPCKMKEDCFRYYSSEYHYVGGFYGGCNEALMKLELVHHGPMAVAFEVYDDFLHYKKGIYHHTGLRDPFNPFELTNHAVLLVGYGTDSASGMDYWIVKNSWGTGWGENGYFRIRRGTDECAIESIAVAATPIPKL
# Assay: DPP1 activity cell assay
# Format: cell-based
# Details: read-out: DPP1 IC50, corrected for PPB
smiles,measurement,setting,value
"N#Cc1ccc(-c2ccc(C[C@@H](C#N)NC(=O)C3(N)CCOCC3)cc2)cc1 [AZ2, (S)‐4‐amino‐N‐(1‐cyano‐2‐(4′‐cyanobiphenyl‐4‐yl)ethyl)tetrahydro‐2H‐pyran‐4‐carboxamide]",IC50,in vitro potency corrected for human PPB,44 nM
same,IC50,in vitro potency corrected for rat PPB,67 nM
